The text below walks through data of patent US20110009387A1, “HISTONE H2AX (HH2AX) BIOMARKER FOR FTI SENSITIVITY” (priority 2007, published 2011).

The experiment has as its target farnesyl transferase (Homo sapiens, UniProt P49356). Briefly: Inhibition of farnesyl transferase. In kind it is biochemical.

Structures are written as SMILES.

Consider `NC(=O)N1CCC(CC(=O)N2CCC(C3c4ncc(Br)cc4CCc4cc(Cl)cc(Br)c43)CC2)CC1` (single isomer, unassigned) [inactive enantiomer of lonafarnib], for which the “inhibition of farnesyl transferase” value is listed as “fails to inhibit”.
